Laboratory results as given in patent publication US9315535B2, “Nucleoside and nucleotide having nitrogen-containing heterocycle structure” (SHIONOGI & CO., LTD., priority 2013, dated 2016).

test system: phosphodiesterase I; settings: pH 8

Substance | remaining ratio (Remaining oligonucleotides, undegraded 10 mer vs time 0) [%]
5′-d (TTT TTT TTT Xp)-3′ [oligonucleotide (12)] | 55
5′-d(TTT TTT TTT X)-3′ [oligonucleotide (5)] | 80
5′-d(TTT TTT TTT Xq)-3′ [oligonucleotide (17)] | 100
